These results are taken from PubChem BioAssay AID1053188 (Broad Institute, 2014).

This is a selection; strong and weak results do not stand in their true shares. Activity calls are given as the source filed them.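 Rule for the calls: active = mean inhibition of at least 50% with a set share of replicates also reaching that level; inconclusive = no clear call, values can overlap the other calls; inactive = the rest.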

This assay can be described thus: CD40 pathway blockade in BL2 B cells – cell-based, luciferase reporter, single point, primary screen (AID 1053188).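 Note: 0% = neutral control wells and 100% = IKK inhibitor VII at 50 µM.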 Conditions: BL2 NF-kB luciferase reporter, CD40L-induced, 4 h; at 10 µM; stronger effect = higher value.
As usually defined, the inhibition is the change of the read-out against control, counted positive when it falls. For the molecule `CC(C)c1ccc(C(=O)NCC2(N3CCOCC3)CCCCC2)cc1`, the inhibition was inactive: -17%. Consider `CN1CCN(CCOC(=O)C(O)(c2ccccc2)c2ccccc2)CC1`, for which the inhibition was inactive: 5.78%.

On to `CSc1ccc(C(=O)NCC2(N3CCOCC3)CCCCC2)cc1`, for which the inhibition was inactive: -1.79%. In the case of `O=C(NCC1(N2CCCCC2)CCCCC1)c1cccc([N+](=O)[O-])c1` it was inactive: 2.36%; in that of `Cc1ccc(C(=O)NCC2(N(C)C)CCCCC2)o1`, inactive: 9.91%; in that of `O=C(NCC1(N2CCOCC2)CCCCC1)c1cc(F)c(F)cc1Cl`, inactive: 0.761%.

As to `CCOC(=O)N1CCC(Nc2ccc(OC)cc2)CC1`, the inhibition was inactive: -8.63%. In the case of `O=C(OC1CN2CCC1CC2)C1c2ccccc2Oc2ccccc21` (stereo unspecified) it was inactive: 7.6%. In the case of `O=C(NCC1(N2CCCCC2)CCCCC1)c1ccc(=O)[nH]c1` it was inactive: 11.9%; in that of `O=C(NCC1(N2CCCCC2)CCCCC1)c1cccs1`, inactive: 14.7%.

As for `CCCCOc1ccc(C(=O)NCC2(N3CCOCC3)CCCCC2)cc1`, the inhibition was inactive: -1.03%. In the case of `O=P1(N(CCCl)CCCl)SCCCS1` it was inactive: 8.77%; in that of `COc1ccc(NC2CCN(CCc3ccccc3)CC2)c(OC)c1`, inactive: 15%. For `O=C(NCC1(N2CCCCC2)CCCCC1)c1ccco1` the value was inactive: -1.76%; for `Cn1c(=O)[nH]cc(N(CCCl)CCCl)c1=O`, inactive: 0.15%; for `Cc1ccccc1NC1(C#N)CCN(Cc2ccccc2)CC1`, inactive: 5.43%. In the case of `O=C(O)C1(Nc2ccccc2)CCN(Cc2ccccc2)CC1` it was inactive: 1.49%. Turning to `CCOc1ncccc1C(=O)NCC1(N2CCOCC2)CCCCC1`, the inhibition is inactive: 3.73%. For `O=C(OC1CN2CCC1CC2)C1c2ccccc2C=Cc2ccccc21` (stereo unspecified) the value was inactive: 24.7%; for `O=C(NCC1(N2CCOCC2)CCCCC1)c1cc(Br)ccc1Cl`, inactive: 7.34%.

Turning to `C/C(N)=N\P(=O)(Oc1ccccc1)Oc1ccccc1`, the inhibition is inactive: -2.83%.
